# Target: mDAT (Mus musculus, UniProt Q61327)
# Chains of the proteins cited; added tags and fusions are not shown.
# UniProt Q61327, whole entry: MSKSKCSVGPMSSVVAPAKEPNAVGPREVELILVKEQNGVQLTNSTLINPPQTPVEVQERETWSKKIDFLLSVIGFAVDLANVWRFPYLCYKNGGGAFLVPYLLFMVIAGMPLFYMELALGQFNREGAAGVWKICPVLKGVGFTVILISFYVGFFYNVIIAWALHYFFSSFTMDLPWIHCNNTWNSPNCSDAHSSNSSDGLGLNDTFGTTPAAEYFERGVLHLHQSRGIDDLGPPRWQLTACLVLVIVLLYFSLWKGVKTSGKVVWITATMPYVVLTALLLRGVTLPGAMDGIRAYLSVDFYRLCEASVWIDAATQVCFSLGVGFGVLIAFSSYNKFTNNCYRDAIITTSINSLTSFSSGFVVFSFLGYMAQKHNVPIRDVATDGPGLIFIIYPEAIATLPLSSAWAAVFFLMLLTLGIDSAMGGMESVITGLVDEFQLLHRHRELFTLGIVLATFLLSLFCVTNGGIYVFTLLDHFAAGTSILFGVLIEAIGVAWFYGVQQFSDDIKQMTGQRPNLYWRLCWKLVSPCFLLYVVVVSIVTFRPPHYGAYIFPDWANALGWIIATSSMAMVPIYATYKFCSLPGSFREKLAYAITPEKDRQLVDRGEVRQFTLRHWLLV
# Assay: [^3H]DA uptake by mDAT expressed in HEK-293 cells
# Format: cell-based
# Conditions: read-out: [^3H]DA uptake, IC50 ± SEM; mDAT in HEK-293 cells
smiles,measurement,value
"OC1(c2ccc(Cl)cc2)c2ccccc2C2=NCCN21 (racemic) [compound 26, (±)-5-(4-chlorophenyl)-3,5-dihydro-2H-imidazo[2,1-a]isoindol-5-ol]",IC50,0.013 ± 0.0026 µM
